Test results: BindingDB's records for doi:10.1016/j.bioorg.2016.11.007 (University of Karachi, 2017)

Amino acid sequences for entries named in this document (tags omitted). A change or cut given only in a name is not applied to a line headed by its entry.
UniProt P07650: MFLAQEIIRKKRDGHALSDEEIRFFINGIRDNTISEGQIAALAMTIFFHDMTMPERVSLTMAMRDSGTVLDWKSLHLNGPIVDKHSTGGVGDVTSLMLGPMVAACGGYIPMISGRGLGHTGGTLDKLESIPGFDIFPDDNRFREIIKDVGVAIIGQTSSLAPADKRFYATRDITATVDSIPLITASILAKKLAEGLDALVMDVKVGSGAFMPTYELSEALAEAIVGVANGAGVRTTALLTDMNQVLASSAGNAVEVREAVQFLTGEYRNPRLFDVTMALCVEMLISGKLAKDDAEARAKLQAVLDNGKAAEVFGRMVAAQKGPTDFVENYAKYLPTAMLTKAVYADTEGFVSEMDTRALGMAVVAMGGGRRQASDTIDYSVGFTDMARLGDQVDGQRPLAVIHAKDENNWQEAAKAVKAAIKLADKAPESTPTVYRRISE

Target: Thymidine phosphorylase (Escherichia coli (strain K12), UniProt P07650)
Assay: Kinetic Assay
Conditions: 30 °C
Procedure: In kinetic assay, the TP enzyme (0.058 U/well) was incu- bated with different concentrations of inhibitor (0.5 0.001 mM) for 10 min at 30 C. The reaction was then initiated by adding different concentrations of substrate (0.1875 1.5 mM). Degradation of thymidine was measured continuously at 290 nm for 10 min on ELISA plate reader [Bera et al., Chem. Biol. Drug Des., 82:351-360].

- Ki: 49.1 µM
SMILES: O=c1[nH]c(=O)c2cc[nH]c2[nH]1 [1,7-Dihydro-pyrrolo[2,3-d]pyrimidine-2,4-dione]
